Test results from US20130333059A1 (Johns Hopkins, published 2013).

Amino acid sequences for entries named in this document (tags omitted). Residues count along the entry.
UniProt P12956, 2-609 limits assumed, chain 1 of 2: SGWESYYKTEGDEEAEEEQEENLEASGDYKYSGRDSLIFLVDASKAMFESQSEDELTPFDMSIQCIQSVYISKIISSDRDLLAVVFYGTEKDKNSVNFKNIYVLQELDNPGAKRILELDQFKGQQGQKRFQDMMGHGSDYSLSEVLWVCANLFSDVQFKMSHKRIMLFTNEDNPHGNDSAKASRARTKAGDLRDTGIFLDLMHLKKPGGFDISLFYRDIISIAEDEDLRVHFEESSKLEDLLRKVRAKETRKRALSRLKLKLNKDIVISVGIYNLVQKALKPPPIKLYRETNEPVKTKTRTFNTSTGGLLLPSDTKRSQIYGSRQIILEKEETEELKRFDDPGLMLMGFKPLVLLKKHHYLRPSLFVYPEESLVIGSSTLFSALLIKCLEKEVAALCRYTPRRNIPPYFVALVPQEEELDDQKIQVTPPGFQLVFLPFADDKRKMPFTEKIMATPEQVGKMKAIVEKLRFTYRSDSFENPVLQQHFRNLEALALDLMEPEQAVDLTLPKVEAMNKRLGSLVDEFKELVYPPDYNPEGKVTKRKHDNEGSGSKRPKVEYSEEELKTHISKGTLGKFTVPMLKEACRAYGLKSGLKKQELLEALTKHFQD
Ku70/80, UniProt P13010, 2-732 limits assumed, chain 2 of 2: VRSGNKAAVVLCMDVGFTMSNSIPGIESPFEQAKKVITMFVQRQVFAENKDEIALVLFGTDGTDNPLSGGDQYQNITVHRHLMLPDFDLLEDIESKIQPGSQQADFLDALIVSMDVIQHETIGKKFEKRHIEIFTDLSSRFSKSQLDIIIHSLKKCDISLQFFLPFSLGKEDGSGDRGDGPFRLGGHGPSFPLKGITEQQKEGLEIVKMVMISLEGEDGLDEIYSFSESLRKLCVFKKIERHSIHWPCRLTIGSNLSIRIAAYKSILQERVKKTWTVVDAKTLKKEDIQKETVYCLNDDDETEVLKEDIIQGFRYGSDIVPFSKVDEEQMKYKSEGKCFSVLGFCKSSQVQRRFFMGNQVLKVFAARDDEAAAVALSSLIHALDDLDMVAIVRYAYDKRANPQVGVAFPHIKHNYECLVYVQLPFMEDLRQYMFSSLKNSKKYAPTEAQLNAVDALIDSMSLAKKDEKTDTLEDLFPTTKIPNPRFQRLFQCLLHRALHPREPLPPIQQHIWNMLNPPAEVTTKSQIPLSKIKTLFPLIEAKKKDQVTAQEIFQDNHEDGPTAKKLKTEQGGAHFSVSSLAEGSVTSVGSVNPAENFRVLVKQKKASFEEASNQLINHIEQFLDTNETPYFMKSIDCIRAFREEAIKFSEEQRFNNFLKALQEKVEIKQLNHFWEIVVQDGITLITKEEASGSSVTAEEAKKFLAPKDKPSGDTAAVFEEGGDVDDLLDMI

Target: Ku70/80 (human, UniProt P12956 2-609; P13010 2-732)
Test: co-immunoprecipitation with anti-FLAG antibody from transfected SKBR3 cells, immunoblot
Description: Communoprecipitation. […] Complementary coimmunoprecipitation of HOXB7-YFP with its binding proteins was done with monoclonal antibodies to human DNA-PKcs and human Ku86 (clones H-163 and C-20, respectively; Santa Cruz Biotechnology) as described (12). To verify the interaction between endogenous HOXB7 with Ku70, Ku80, and DNA-PK under physiologic conditions and the effect of DNA depletion, 1 to 2 mg of whole cell lysates of MCF-7 (with or without ethidium bromide) were subjected to immunoprecipitation with Ku70 and Ku80 antibodies, the immune complexes were loaded onto 4% to 12% NuPAGE gels (Invitrogen) and immunoblotted with anti-HsKu70 (clone 2C3.11; Novus Biologicals), Ku86 (C-20; Santa Cruz Biotechnology), or anti-HOXB7 rabbit polyclonal antibodies (Invitrogen).
To define the region of HOXB7 that interacts with Ku70/80 proteins, full-length Fl-HOXB7 and HOXB7 with deletions of helix 3 of the homeodomain (HOXB7-Δh3) or of the glutamic acid tail (HOXB7-ΔGlu; FIG. 10B, top; ref. 11) were transfected into SKBR3 cells, and cell lysates were subjected to coimmunoprecipitation with FLAG antibody (FIG. 10B, bottom).

B1: HOXB7-Δh3 (other, UniProt P09629 1-217, looked up)
chain: MSSLYYANTLFSKYPASSSVFATGAFPEQTSCAFASNPQRPGYGAGSGASFAASMQGLYPGGGGMAGQSAAGVYAAGYGLEPSSFNMHCAPFEQNLSGVCPGDSAKAAGAKEQRDSDLAAESNFRIYPWMRSSGTDRKRGRQTYTRYQTLELEKEFHYNRYLTRRRRIEIAHTLCLTENKTAGPGTTGQDRAEAEEEEEE
notes: also called HOXB7 with deletion of helix 3 of the homeodomain; HOXB7 lacking helix 3; not shown: FLAG tag
- binding result: no binding
